Each structure is given as a SMILES string.

Amino acid sequences for entries named in this document (tags omitted). A change or cut given only in a name is not applied to a line headed by its entry.
UniProt P31749: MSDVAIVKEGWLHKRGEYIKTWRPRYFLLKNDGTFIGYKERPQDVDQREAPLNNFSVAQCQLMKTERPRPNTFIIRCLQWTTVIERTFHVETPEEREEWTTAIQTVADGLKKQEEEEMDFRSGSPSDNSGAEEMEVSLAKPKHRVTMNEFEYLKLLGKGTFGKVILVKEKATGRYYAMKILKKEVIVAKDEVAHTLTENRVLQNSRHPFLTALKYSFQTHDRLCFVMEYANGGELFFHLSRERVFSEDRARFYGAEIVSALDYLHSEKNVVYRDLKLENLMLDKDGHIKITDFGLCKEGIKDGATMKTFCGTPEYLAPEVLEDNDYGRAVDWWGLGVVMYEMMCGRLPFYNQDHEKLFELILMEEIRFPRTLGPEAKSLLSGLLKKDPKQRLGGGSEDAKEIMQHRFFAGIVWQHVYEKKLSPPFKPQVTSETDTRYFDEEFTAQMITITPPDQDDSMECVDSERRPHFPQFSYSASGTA

Drawing on US8609688B2, “Substituted imidazopyridinyl-aminopyridine compounds” (ArQule, Inc., priority 2011, dated 2013), this text covers Kd and IC50 for 3 compounds.

Assay [1] concerns the target T1, Full-length inactive AKT1 (Homo sapiens (Human), UniProt P31749). Description: Thermal Shift Assay (protein-ligand binding). Conditions: Kd at 25° C. calculated using constant ligand binding enthalpy −15 kcal/mol; 15 μM compound, ANS dye. The protocol:
Binding analysis. Protein-ligand binding was identified with the thermal shift assay which is based on the ligand-induced stabilization of the protein tertiary structure. The thermal stability of the ligand-Akt1 complex was assessed by subjecting the complex to a set temperature gradient and by comparison of the meltion temperature of the Akt1-ligand complex with the melting temperature of the protein alone. Protein unfolding was monitored by the fluorescence readout of an environmentally sensitive fluorescent dye, 1-anilinonaphthalene-8-sulfonic acid (ANS). […] The PCR plate was placed into a RT-PCR instrument and a temperature gradient was performed, increasing from 27 to 80° C., at 1° C./30 sec heat rate with a dwell time of 20 sec. The change in ANS fluorescence was measured using the filter set of 475 nm/525 nm excitation/emission. Ligand affinity parameter (Kd) at 25° C. was calculated using constant ligand binding enthalpy ? H=−15 kcal/mol.

In assay [2] the target is T1, Full-length inactive AKT1. The assay can be described thus: Inactive Akt Alpha Screen Assay. Conditions: 8 nM inactive Akt1 activated by PDK1 and MAPKAPK2, lipid vesicles, 50 μM ATP, biotinylated crosstide; read-out: Akt1 biochemical assay IC50 AlphaScreen crosstide. The protocol:
AKT1 activity was assayed using the GSK3-derived biotinylated peptide substrate, crosstide (biotin-GRPRTSSFAEG), and AlphaScreen™ (Amplified Luminescent Proximity Homogeneous Assay) technology. AKT1 activation was achieved by the addition of the activating kinases PDK1 and MAPKAPK2, lipid vesicles, and ATP. The extent of peptide phosphorylation was determined using a phospho-AKT substrate antibody and acceptor beads conjugated to Protein A and donor beads conjugated to streptavidin that bind to the biotin on the peptide. […]
Test inhibitors and controls ((S)-1-((5-(3-methyl-1H-indazol-5-yl)pyridin-3-yl)oxy)-3-phenylpropan-2-amine, 1-(1-(4-(7-phenyl-1H-imidazo[4,5-g]quinoxalin-6-yl)benzyl)piperidin-4-yl)-1H-benzo[d]imidazol-2(3H)-one, and 8-(4-(1-aminocyclobutyl)phenyl)-9-phenyl[1,2,4]triazolo[3,4-f][1,6]naphthyridin-3(2H)-one) were prepared in 10% DMSO at 10-fold the desired final concentration, and added to each well of a reaction plate (Corning 96-well half-area solid white nonbinding surface plate) in a volume of 2.5 μL. […] Assay plates were incubated for 90 minutes at room temperature in the dark, and the plates were read on a Perkin Elmer Envision Multilabel plate reader (excitation wavelength: 640 nm, emission wavelength: 570 nm). […]

Turning to `C[C@H](O)CNC(=O)c1cccc(-c2ccc3nc(-c4cccnc4N)n(-c4ccc(C5(N)CCC5)cc4)c3n2)c1` [Cmpd 7, (S)-3-(3-(4-(1-aminocyclobutyl)phenyl)-2-(2-aminopyridin-3-yl)-3H-imidazo[4,5-b]pyridin-5-yl)-N-(2-hydroxypropyl)benzamide], the Kd in assay [1] is 7.1 nM. Turning to `C[C@@H](O)CNC(=O)c1cccc(-c2ccc3nc(-c4cccnc4N)n(-c4ccc(C5(N)CCC5)cc4)c3n2)c1` [Cmpd 8, (R)-3-(3-(4-(1-aminocyclobutyl)phenyl)-2-(2-aminopyridin-3-yl)-3H-imidazo[4,5-b]pyridin-5-yl)-N-(2-hydroxypropyl)benzamide], the half-inhibitory concentration (IC50) in assay [2] amounted to 1.5 nM. In addition, the Kd in assay [1] was 1.2 nM.

In the case of `CC(=O)NC1CCN(c2cccc(-c3ccc4nc(-c5cccnc5N)n(-c5ccc(C6(N)CCC6)cc5)c4n3)c2)CC1` [Cmpd 12, N-(1-(3-(3-(4-(1-aminocyclobutyl)phenyl)-2-(2-aminopyridin-3-yl)-3H-imidazo[4,5-b]pyridin-5-yl)phenyl)piperidin-4-yl)acetamide], in assay [2], the IC50 was 1.44 nM. In assay [1], the equilibrium dissociation constant (Kd) was 0.2 nM.

Broadly, the Kd is a measure of binding affinity in units of concentration. Broadly, the IC50 is the concentration that inhibits the measured activity by half.
